Assay results as given in patent US7576102B2, “Biaryl substituted nitrogen containing heterocycle inhibitors of LTA4H for treating inflammation” (deCODE genetics ehf, priority 2005, dated 2009).

Amino acid sequences for entries named in this document (tags omitted).
UniProt P09960, whole entry: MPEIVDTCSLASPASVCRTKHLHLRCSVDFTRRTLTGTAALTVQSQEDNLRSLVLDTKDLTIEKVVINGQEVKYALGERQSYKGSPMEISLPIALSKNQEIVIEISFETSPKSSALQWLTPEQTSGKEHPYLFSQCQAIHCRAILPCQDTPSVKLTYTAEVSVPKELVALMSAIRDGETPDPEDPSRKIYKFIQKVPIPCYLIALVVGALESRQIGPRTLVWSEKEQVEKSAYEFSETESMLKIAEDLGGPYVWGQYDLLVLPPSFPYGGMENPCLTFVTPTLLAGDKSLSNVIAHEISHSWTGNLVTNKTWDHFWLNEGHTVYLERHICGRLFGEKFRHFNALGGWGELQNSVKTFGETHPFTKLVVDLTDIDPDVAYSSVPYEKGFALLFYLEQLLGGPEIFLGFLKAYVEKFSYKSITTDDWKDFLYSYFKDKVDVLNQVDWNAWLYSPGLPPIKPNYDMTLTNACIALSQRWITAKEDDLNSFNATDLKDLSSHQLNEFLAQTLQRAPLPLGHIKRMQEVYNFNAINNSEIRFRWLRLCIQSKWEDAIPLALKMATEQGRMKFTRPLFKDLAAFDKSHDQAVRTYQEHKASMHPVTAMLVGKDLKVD

Molecular target: human LTA4 hydrolase (Homo sapiens, UniProt P09960)
Experiment: In vitro assay testing inhibitory activity against purified recombinant human LTA4 hydrolase
Conditions: read-out: IC50(μM) (hLTA4H); 200 nM recombinant enzyme, 2 μM LTA4, LTB4 by LC-MS/MS
Excerpt: (1) In vitro Assay Testing Inhibitory Activity Against Purified Recombinant Human LTA4 Hydroase:
A human LTA4 hydrolase full-length cDNA clone (NM_000895) was purchased from OriGene Technologies (Rockville, Md.). The gene was amplified by polmerase chain reaction and transferred via pDONR201 into the bacterial expression vector pDEST17 by recombination (both plasmids from Invitrogen, Carlsbad, Calif.). The resulting construct was transformed into Escherichia coli BL21-AI (Invitrogen), and expression was induced by chemical induction with arabinose. […]
Immediately before the assay, LTA4 was diluted to a concentration of 10 μM in assay buffer (without DMSO) and added to the reaction mixture to a final concentration of 2 μM to initiate the enzyme reaction. […] LTB4 formed was measured by LC-MS/MS using LTB4-d4 as an internal standard and an external LTB4 standard (Biomol) as reference. Briefly, the analyte was separated from LTB4 isomers formed by spontaneous hydrolysis of LTA4 using isocratic elution (modified protocol from Mueller et al. (1996), J. Biol. Chem. 271, 24345-24348) on a HPLC system (Waters, Milford, Mass.) and analyzed on a tandem quadrupole mass spectrometer (Waters). […] Based on the amounts of LTB4 found at each inhibitor concentration, a dose-response curve was fitted to the data and an IC50 value was calculated.

- IC50: < 5 µM
SMILES: NC(=O)CCCN1CC[C@@H](Oc2ccc(Cc3ccccc3)cc2)C1
